Reference: US9636336B2, “Aminoester derivatives” (CHIESI FARMACEUTICI S.p.A., priority 2015, dated 2017)

Chains of the proteins cited; added tags and fusions are not shown. A line that says so, or that is headed by a name, gives the form on record, which may keep a tag or linker.
UniProt P20309, whole entry: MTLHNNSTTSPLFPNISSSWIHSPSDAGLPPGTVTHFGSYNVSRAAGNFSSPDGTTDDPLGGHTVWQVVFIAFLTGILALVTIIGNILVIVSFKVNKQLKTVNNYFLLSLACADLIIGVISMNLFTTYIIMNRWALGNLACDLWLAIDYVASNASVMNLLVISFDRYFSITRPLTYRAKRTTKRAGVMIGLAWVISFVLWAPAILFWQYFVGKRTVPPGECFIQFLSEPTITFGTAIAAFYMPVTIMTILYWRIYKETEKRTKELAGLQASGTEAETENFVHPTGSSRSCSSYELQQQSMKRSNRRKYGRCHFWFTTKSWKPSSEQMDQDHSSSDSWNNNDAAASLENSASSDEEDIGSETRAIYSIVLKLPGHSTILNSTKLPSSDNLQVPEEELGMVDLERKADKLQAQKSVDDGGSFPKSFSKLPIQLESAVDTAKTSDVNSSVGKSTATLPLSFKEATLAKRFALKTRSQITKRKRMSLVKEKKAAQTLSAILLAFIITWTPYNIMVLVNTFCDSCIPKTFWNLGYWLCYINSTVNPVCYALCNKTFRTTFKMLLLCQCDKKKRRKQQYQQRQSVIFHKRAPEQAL
UniProt Q07343, other isoform, or with tags, fused parts or gaps: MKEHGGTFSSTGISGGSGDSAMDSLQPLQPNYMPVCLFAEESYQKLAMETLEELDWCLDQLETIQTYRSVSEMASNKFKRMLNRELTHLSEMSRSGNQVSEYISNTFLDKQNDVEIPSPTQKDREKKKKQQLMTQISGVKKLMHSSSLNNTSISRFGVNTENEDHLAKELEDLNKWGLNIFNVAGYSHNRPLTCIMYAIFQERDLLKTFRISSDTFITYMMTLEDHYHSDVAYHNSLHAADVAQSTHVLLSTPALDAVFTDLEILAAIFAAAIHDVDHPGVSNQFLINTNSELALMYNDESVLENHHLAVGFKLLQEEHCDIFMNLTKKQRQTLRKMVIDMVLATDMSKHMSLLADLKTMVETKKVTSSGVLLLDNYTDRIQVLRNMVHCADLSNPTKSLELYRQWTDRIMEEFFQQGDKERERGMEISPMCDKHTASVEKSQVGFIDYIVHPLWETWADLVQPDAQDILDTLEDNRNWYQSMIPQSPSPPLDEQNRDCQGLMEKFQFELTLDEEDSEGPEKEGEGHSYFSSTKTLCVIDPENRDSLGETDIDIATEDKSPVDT

The molecules below were run against Human M3 receptor membranes (Homo sapiens (Human), UniProt P20309) (assay: M3 Receptor radioligand binding assay).
Experimental: M3 Receptor Radioligand Binding Assay:
The assay is carried out in 96-well polypropylene plates in a volume of 250 μl. […] The final assay concentration of DMSO is 0.5% (v/v). The plates are sealed and incubated for 2 h at room temperature on an orbital shaker (slow speed). Membranes are harvested onto 96-well unifilter GF/C filter plates pre-treated with 0.5% polyethyleneimine (v/v), using a filter manifold, washed four times with 200 μl of assay buffer. The plates are dried before addition of 50 μl of microscint-0, sealed then read in a Trilux Microbeta scintillation counter. IC50 values are determined from competition curves using a non-linear curve fitting program. Ki values are calculated from IC50 values by the Cheng and Prusoff equation.

| Structure (SMILES) | IC50 [nM] |
| --- | --- |
| CN1CCC(COC(=O)C(NCc2ccc(C(=O)O[C@@H](Cc3c(Cl)c[n+]([O-])cc3Cl)c3ccc(OC(F)F)c(OCC4CC4)c3)s2)c2ccccc2)CC1 (stereo partly drawn) [Example 13, [(1S)-1-[3-(cyclopropylmethoxy)-4-(difluoromethoxy)phenyl]-2-(3,5-dichloro-1-oxido-pyridin-1-ium-4-yl)ethyl] 5-[[[2-[(1-methyl-4-piperidyl)methoxy]-2-oxo-1-phenyl-ethyl]amino]methyl]thiophene-2-carboxylate] | 1 to 10 |
| COc1ccc([C@H](Cc2c(Cl)c[n+]([O-])cc2Cl)OC(=O)c2ccc(CNC(C(=O)OCCN3CCCC3)c3ccccc3)s2)cc1OC (stereo partly drawn) [Example 21, [(1S)-2-(3,5-dichloro-1-oxido-pyridin-1-ium-4-yl)-1-(3,4-dimethoxyphenyl)ethyl] 5-[[[2-oxo-1-phenyl-2-(2-pyrrolidin-1-ylethoxy)ethyl]amino]methyl]thiophene-2-carboxylate] | 10 to 100 |
| COc1ccc([C@H](Cc2c(Cl)c[n+]([O-])cc2Cl)OC(=O)c2ccc(CNC(C(=O)OCC3CCN(C)CC3)c3ccccc3)s2)cc1OC (stereo partly drawn) [Example 23, [(1S)-2-(3,5-dichloro-1-oxido-pyridin-1-ium-4-yl)-1-(3,4-dimethoxyphenyl)ethyl] 5-[[[2-[(1-methyl-4-piperidyl)methoxy]-2-oxo-1-phenyl-ethyl]amino]methyl]thiophene-2-carboxylate] | 1 to 10 |
| COc1ccc([C@H](Cc2c(Cl)c[n+]([O-])cc2Cl)OC(=O)c2ccc(CNC(C(=O)OCC3CCN(C)CC3)c3ccccc3F)s2)cc1OC (stereo partly drawn) [Example 24, [(1S)-2-(3,5-dichloro-1-oxido-pyridin-1-ium-4-yl)-1-(3,4-dimethoxyphenyl)ethyl] 5-[[[1-(2-fluorophenyl)-2-[(1-methyl-4-piperidyl)methoxy]-2-oxo-ethyl]amino]methyl]thiophene-2-carboxylate] | 1 to 10 |
| COc1ccc([C@H](Cc2c(Cl)c[n+]([O-])cc2Cl)OC(=O)c2ccc(CNC(CO)(C(=O)OCC3CCN(C)CC3)c3ccccc3)s2)cc1OC (stereo partly drawn) [Example 35, [(1S)-2-(3,5-dichloro-1-oxido-pyridin-1-ium-4-yl)-1-(3,4-dimethoxyphenyl)ethyl] 5-[[[1-(hydroxymethyl)-2-[(1-methyl-4-piperidyl)methoxy]-2-oxo-1-phenyl-ethyl]amino]methyl]thiophene-2-carboxylate] | 1 to 10 |
| COc1ccc([C@H](Cc2c(Cl)c[n+]([O-])cc2Cl)OC(=O)c2ccc(CNC3(C(=O)OCC4CCN(C)CC4)CCc4ccccc43)s2)cc1OC (stereo partly drawn) [Example 38, [(1S)-2-(3,5-dichloro-1-oxido-pyridin-1-ium-4-yl)-1-(3,4-dimethoxyphenyl)ethyl]5-[[[1-[(1-methyl-4-piperidyl)methoxycarbonyl]indan-1-yl]amino]methyl]thiophene-2-carboxylate] | 1 to 10 |
| COc1ccc([C@H](Cc2c(Cl)c[n+]([O-])cc2Cl)OC(=O)c2ccc(CNC(C(=O)OCC3CCN(C)CC3)c3ccccc3)s2)cc1OC (stereo partly drawn) [Example 87, [(1S)-2-(3,5-dichloro-1-oxido-pyridin-1-ium-4-yl)-1-(3,4-dimethoxyphenyl)ethyl] 5-[[[2-[(1-methyl-4-piperidyl)methoxy]-2-oxo-1-phenyl-ethyl]amino]methyl]thiophene-2-carboxylate] | 1 to 10 |
| COc1ccc([C@H](Cc2c(Cl)c[n+]([O-])cc2Cl)OC(=O)c2ccc(CNC(CO)(C(=O)OCC3CCN(C)CC3)c3ccccc3)s2)cc1OC (stereo partly drawn) [Example 105, [(1S)-2-(3,5-dichloro-1-oxido-pyridin-1-ium-4-yl)-1-(3,4-dimethoxyphenyl)ethyl] 5-[[[1-(hydroxymethyl)-2-[(1-methyl-4-piperidyl)methoxy]-2-oxo-1-phenyl-ethyl]amino]methyl]thiophene-2-carboxylate] | 1 to 10 |

These molecules were tested against Human recombinant PDE4B2 (Homo sapiens (Human), UniProt Q07343) (assay: PDE4B2 HTRF assay).
Assay type: biochemical
Experimental: PDE4B2 activity is detected using the LANCE Ultra cAMP homogeneous time resolved fluorescence resonance energy transfer (TR-FRET) assay from Perkin Elmer. The assay is based on the competition between the europium (Eu) chelate-labeled cAMP tracer and sample cAMP for binding sites on cAMP-specific monoclonal antibodies (mAb) labelled with the ULight™ dye. The assay is carried out in 384-well low volume plates in a volume of 10 μl. Human recombinant PDE4B2 (80 pM) is incubated for 2 h with 3 nM cAMP in buffer containing 1×HBSS, 5 mM HEPES, 3 mM MgCl2, 0.1% BSA, pH 7.4 with or without test compounds. The enzymatic reactions are efficiently stopped by the addition of 500 μM IBMX present in the combined Stop/Detection buffer containing europium (Eu) chelate-labeled cAMP tracer and cAMP-specific monoclonal antibodies (mAb) labelled with the ULight™ dye. […] IC50 values are determined from competition curves using a non-linear curve fitting program.

| IC50 [nM] | Structure (SMILES) |
| --- | --- |
| 1 to 10 | COc1ccc([C@H](Cc2c(Cl)c[n+]([O-])cc2Cl)OC(=O)c2ccc(CNC(C(=O)OC[C@@H]3CCCN3C)c3ccccc3)s2)cc1OC (stereo partly drawn) [Example 16, [(1S)-2-(3,5-dichloro-1-oxido-pyridin-1-ium-4-yl)-1-(3,4-dimethoxyphenyl)ethyl] 5-[[[2-[[(2S)-1-methylpyrrolidin-2-yl]methoxy]-2-oxo-1-phenyl-ethyl]amino]methyl]thiophene-2-carboxylate] |
